What was measured:
[1] = target: human 5-hydroxytryptamine-2C (h5-HT2C) receptor (Homo sapiens, UniProt P28335); experiment: 5-HT2C binding: [125I]DOI displacement in membranes of transfected CHO cells; details: read-out: 5-HT2C Binding Ki avg; tested form: HCl
human 5-HT2C receptor = human 5-HT2C receptor (Homo sapiens, UniProt P28335); experiment: 5-HT2C receptor-stimulated calcium mobilization (FLIPR) in CHO cells; assay type: cell-based; details: tested form: HCl

Sequences of proteins named here, by UniProt entry; tags and fusion partners are left off. Residues count along the entry.
UniProt P28335, 33-458 limits assumed: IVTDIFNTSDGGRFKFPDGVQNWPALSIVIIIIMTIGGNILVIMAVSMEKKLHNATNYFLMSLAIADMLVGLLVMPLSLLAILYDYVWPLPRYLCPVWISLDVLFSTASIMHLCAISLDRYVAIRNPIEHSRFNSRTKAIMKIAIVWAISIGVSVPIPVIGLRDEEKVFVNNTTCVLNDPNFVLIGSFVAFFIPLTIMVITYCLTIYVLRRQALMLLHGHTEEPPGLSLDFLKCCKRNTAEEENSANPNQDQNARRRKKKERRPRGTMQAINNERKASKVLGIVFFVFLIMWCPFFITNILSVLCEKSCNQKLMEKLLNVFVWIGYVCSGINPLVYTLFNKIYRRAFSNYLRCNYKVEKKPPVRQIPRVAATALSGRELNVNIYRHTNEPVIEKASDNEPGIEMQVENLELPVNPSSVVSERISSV

## Cc1ccccc1-c1c(F)ccc2c1O[C@@H](CN)CO2
[1]
  Ki: < 50 nM
Human 5-HT2C receptor; percentage of the response to a maximally effective concentration of 5-HT
  5-HT2C Function EMax (%): 40%
Human 5-HT2C receptor; read-out: 5-HT2C Function EC50
  EC50: < 100 nM

— US20060241172A1, “Benzodioxane and benzodioxolane derivatives and uses thereof” (Wyeth, priority 2005, published 2006)
